Measurements published in patent US20170189547A1, “Biodegradable Drug Delivery Composition” (Durect Corporation, priority 2010, published 2017).

Sequences of proteins named here, by UniProt entry; tags and fusion partners are left off. Residues count along the entry.
UniProt P01241, 27-217: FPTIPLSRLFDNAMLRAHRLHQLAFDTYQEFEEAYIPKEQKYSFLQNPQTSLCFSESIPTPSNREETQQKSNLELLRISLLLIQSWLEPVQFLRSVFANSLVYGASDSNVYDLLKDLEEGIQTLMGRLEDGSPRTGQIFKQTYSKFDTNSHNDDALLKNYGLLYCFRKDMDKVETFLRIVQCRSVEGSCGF

Biological target: T1, hGH (Homo sapiens, UniProt P01241)
T1 construct: purchased Hospira, Adelaide
Experiment: Complexation capability of hGH with anionic and cationic agents (non-complexed hGH in supernatant by RPLC)
Type: physicochemical
Conditions: concentration ratio 1:10
Procedure: Additional complexation agents were tested in vitro for their ability to precipitate rhGH.
Human growth hormone (purchased from Hospira, Adelaide) was complexed with poly lysine, poly arginine, poly adenylic acid (poly-A), or poly thymine (poly-T) in appropriate ratios (as specified in Table 28) to form suspensions. Supernatant was separated from precipitate (ppt) by centrifugation of the complexed material suspensions. The supernatant solution was analyzed for non-complexed hGH by reverse phase liquid chromatography (RPLC).

## Poly-Arginine
hGH with complexing agent
  Observation: Cloudy ppt
non-complexed hGH by RPLC
  Supernatant Analysis (% of hGH): 15.8 % of hGH
